Source: patent US12590088B2 (dated 2026)

Amino acid sequences for entries named in this document (tags omitted). A change or cut given only in a name is not applied to a line headed by its entry.
UniProt P29597: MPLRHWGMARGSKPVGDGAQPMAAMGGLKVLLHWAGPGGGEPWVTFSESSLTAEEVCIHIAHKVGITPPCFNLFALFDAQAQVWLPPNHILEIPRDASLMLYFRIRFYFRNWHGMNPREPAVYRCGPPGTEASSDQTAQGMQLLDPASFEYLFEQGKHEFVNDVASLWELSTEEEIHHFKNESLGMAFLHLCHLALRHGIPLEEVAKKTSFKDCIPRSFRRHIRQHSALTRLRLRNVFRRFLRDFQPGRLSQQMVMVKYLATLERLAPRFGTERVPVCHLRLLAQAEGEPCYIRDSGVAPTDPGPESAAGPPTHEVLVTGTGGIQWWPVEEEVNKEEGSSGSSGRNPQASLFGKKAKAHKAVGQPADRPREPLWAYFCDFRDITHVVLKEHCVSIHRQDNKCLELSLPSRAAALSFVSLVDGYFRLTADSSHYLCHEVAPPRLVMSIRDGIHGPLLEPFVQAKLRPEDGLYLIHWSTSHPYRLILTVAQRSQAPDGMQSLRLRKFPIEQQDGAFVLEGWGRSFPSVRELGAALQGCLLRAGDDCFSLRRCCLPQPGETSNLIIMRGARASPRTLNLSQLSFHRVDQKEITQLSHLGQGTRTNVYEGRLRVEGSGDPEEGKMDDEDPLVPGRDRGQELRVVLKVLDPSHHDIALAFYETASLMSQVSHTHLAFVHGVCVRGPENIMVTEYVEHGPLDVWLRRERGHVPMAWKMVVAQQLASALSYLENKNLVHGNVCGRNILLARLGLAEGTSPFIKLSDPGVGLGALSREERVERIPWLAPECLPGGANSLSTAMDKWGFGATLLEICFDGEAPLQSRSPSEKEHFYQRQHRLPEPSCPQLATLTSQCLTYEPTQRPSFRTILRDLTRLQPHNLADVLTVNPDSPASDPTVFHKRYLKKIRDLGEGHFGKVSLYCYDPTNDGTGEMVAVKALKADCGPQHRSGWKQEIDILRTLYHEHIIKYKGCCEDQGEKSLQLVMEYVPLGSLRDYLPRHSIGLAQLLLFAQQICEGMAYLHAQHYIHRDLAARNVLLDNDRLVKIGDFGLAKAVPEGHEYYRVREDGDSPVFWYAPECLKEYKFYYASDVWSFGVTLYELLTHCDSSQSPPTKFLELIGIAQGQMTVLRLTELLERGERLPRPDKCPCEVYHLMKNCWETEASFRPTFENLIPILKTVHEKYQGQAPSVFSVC
UniProt O60674: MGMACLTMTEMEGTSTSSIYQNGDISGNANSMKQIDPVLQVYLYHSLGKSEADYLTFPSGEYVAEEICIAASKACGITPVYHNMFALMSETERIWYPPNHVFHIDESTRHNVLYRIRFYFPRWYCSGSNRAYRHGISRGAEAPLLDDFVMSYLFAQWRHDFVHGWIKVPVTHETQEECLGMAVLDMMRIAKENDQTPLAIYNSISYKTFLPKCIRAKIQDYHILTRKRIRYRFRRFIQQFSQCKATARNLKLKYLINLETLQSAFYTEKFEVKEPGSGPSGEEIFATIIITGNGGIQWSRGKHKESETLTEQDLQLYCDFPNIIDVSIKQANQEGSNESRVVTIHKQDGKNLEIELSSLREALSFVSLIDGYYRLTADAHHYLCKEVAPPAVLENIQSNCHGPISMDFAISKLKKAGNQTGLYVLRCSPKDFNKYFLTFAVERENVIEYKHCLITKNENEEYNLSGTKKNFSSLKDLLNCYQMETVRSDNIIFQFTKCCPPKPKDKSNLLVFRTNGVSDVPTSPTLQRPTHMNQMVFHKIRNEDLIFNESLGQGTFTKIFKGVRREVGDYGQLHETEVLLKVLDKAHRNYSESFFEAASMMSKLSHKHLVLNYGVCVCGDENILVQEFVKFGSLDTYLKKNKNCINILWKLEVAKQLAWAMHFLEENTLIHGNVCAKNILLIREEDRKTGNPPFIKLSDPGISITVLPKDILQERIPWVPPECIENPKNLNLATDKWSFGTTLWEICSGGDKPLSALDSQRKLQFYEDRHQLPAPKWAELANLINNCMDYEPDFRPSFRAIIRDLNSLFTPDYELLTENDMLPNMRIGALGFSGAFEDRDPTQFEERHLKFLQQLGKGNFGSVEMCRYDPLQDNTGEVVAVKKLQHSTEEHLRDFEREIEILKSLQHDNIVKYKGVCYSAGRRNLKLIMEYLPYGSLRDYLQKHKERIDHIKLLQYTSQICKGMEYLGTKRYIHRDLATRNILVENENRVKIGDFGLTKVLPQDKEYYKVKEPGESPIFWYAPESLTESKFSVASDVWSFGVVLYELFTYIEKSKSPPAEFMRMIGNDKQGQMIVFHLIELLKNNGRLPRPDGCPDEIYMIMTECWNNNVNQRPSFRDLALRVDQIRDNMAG

Legend:
[1] = target: TYK2 (Homo sapiens, UniProt P29597); assay: TYK2 IC50 measurement
[2] = target: JAK2 (Homo sapiens, UniProt O60674); assay: JAK2 IC50 measurement

CNC(=O)c1cnc2[nH]ccc2c1N[C@@H]1CCN(Cc2ccc(Cl)cc2)C1 [Compound 15g, (R)-4-((1-(4-Chlorobenzyl)pyrrolidin-3-yl)amino)-N-methyl-1H-pyrrolo[2,3-b]pyridine-5-carboxamide]
IC50 [1]: 0.485 µM | IC50 [2]: 0.444 µM

CNC(=O)c1cnc2[nH]ccc2c1N[C@@H]1CCN(Cc2cccc(Cl)c2)C1 [Compound 15f, (R)-4-((1-(3-chlorobenzyl)pyrrolidin-3-yl)amino)-N-methyl-1H-pyrrolo[2,3-b]pyridine-5-carboxamide]
IC50 [1]: 0.475 µM | IC50 [2]: 0.224 µM
